The values below come from US8007996B2, “Methods to identify protein arginine deiminase 4 inhibitors” (University of South Carolina, priority 2007, dated 2011).

Chains of the proteins cited; added tags and fusions are not shown.
UniProt Q9UM07, whole entry: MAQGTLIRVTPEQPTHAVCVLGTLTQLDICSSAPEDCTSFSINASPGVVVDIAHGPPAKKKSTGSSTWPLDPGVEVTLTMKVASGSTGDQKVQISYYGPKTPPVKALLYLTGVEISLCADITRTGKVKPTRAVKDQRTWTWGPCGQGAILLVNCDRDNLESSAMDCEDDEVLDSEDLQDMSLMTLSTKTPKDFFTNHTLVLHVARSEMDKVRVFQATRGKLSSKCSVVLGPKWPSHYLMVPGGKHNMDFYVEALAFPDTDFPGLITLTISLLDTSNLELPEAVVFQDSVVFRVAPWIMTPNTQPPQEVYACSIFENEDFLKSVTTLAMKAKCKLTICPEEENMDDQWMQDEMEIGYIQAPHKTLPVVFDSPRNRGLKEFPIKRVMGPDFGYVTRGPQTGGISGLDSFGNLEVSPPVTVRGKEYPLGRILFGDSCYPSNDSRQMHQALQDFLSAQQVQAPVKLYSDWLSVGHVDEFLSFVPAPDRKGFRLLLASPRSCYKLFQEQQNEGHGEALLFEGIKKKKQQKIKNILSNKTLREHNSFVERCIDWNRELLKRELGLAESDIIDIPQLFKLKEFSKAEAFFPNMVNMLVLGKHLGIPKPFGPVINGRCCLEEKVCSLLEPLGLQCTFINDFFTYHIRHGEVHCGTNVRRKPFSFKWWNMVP

The IC50 is the concentration at which inhibition is half-maximal. Higher therefore signals weaker potency.

Test [1] concerns the target T1, PAD4 (Homo sapiens, UniProt Q9UM07).
T1 construct: made in house
The test is described as follows: Standard PAD4 assay (citrulline formation from BAEE), IC50 studies. The note with it: 1 mM BAEE, 0.2 μM PAD4, 15 min pre-incubation at 37° C. The test is classed as biochemical. The text has this: Reactions were quenched by flash freezing in liquid N2. The amount of Cit produced was then quantified according to methods known in the art. […] Inhibition Studies.

Test [2] addresses T1, PAD4. The test is described as follows: Inhibition studies: kinetic analysis of PAD4 activity versus BAEE concentration. It is filed as biochemical. To be noted: BAEE 0-20 mM, 0.2 μM PAD4; read-out: Kis. Here is the method: PAD4 activity was measured as a function of substrate concentration in the absence and presence of increasing concentrations of each inhibitor.
Briefly, the compounds were incubated in Reaction Buffer containing various concentrations of BAEE (0-20 mM) for 10 minutes at 37° C. PAD4 (0.2 μM) was then added to initiate the reaction and allowed to proceed for 6 additional minutes. Reactions were then quenched by flash freezing in liquid N2 and the amount of Cit produced was quantified.
[formula] using GraFit version 5.0.11.

`C[C@H]1c2cccc(O)c2C(=O)C2=C(O)[C@]3(O)C(=O)C(C(N)=O)=C(O)[C@@H](N(C)C)[C@@H]3[C@@H](O)[C@@H]21` [Doxycycline] had an IC50 against PAD4 [1] of 860 ± 80 µM.
For `[H]/N=C(/N)N[C@H]1[C@H](O)[C@@H](O)[C@H](O[C@@H]2O[C@@H](C)[C@](O)(C=O)[C@H]2O[C@@H]2O[C@@H](CO)[C@H](O)[C@@H](O)[C@@H]2NC)[C@@H](N/C(N)=N\[H])[C@@H]1O` [Streptomycin], on PAD4 [2], the Ki was found to be 560 ± 170 µM. At PAD4 [1], the IC50 amounted to 1800 µM.
